Literature values in article PMC8796384, “Plasma protein binding prediction focusing on residue-level features and circularity of cyclic peptides by deep learning” (Bioinformatics, 2021).

How the values were obtained:
plasma proteins [1] = tested on: plasma proteins
plasma proteins [2] = settings: whole-peptide descriptor model trained on small molecules; ref Tajimi et al. (2018)

| Substance | %PPB50-95 (plasma proteins [1]; experimental %PPB, below 50% rounded to 50%, above 95% rounded to 95%, DrugBank dataset collected by Tajimi et al. (2018), ref Wishart et al., 2018) | predicted %PPB value by Tajimi (plasma proteins [2]) | Exp. %PPB (PPB rate) (plasma proteins [1]; experimental plasma protein binding rate, ref Schneider et al. (2017)) |
| --- | --- | --- | --- |
| daptomycin | 91.5% |  |  |
| acetyl-daptomycin |  | 18% | 12% |
